{
  "sequences": {"note": "The chains behind the UniProt entries cited, without tags or fusion partners.", "UniProt P30989, whole entry": "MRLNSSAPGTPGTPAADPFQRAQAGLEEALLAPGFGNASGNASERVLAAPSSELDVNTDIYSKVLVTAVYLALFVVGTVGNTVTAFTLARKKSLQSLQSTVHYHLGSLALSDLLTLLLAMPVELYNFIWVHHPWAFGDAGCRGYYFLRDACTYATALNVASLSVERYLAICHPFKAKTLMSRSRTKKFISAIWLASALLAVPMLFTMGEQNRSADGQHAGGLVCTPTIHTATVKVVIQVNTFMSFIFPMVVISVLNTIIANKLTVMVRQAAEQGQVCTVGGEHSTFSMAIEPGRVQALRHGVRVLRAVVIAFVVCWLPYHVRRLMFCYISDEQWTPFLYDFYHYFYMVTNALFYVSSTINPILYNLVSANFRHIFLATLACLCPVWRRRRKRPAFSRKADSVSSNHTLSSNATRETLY"},
  "source": "paper PMC11440508",
  "key": {"NTS1R [1]": {"molecular_target": "T1, NTS1R (Homo sapiens, UniProt P30989)", "test": "Radiochemical saturation binding, adherent CHO-hNTS1R cells", "settings": "23 °C, tested form: TFA"}, "NTS1R [2]": {"molecular_target": "T1, NTS1R", "test": "Radiochemical saturation binding, suspended CHO-hNTS1R cells", "settings": "suspension, 23 °C, tested form: TFA"}, "NTS1R [3]": {"molecular_target": "T1, NTS1R", "test": "Radiochemical saturation binding, adherent HT-29 cells", "settings": "23 °C, tested form: TFA"}, "NTS1R [4]": {"molecular_target": "T1, NTS1R", "test": "Radiochemical association and dissociation kinetics, adherent CHO-hNTS1R cells"}, "NTS1R [5]": {"molecular_target": "T1, NTS1R", "test": "Radiochemical association and dissociation kinetics, suspended CHO-hNTS1R cells"}, "[6]": {"test": "Radiochemical purity after storage (RP-HPLC)", "settings": "stock solution, degradation by radiolysis, tested form: TFA"}, "[7]": {"settings": "adherent cells, tested form: TFA"}, "[8]": {"settings": "suspended cells, tested form: TFA"}},
  "data": [
    {"compound": "[3H]CC([3H])C(=O)NCCCCNC(=O)NC(=N)NCCC[C@H](NC(=O)[C@@H]1CCCN1C(=O)[C@@H](NC(=O)CCc1cn(CCCNC(=O)CCC#Cc2ccc3c(c2)C(C)(C)C2=C4C=C5C6=[N+](CCC5OC4CCN23)c2ccc(S(=O)(=O)[O-])cc2C6(C)C)nn1)C1CCNCC1)C(=O)N[C@@H](CCCNC(=N)N)C(=O)N1CCC[C@H]1C(=O)N[C@H](C(=O)N[C@H](C(=O)N[C@@H](CC(C)C)C(=O)O)[C@@H](C)CC)C(C)(C)c1ccc(O)cc1", "note": "(stereo partly drawn)", "values": [
      {"measurement": "Kd", "setting": "NTS1R [1]", "result": 1.1, "unit": "nM"},
      {"measurement": "Kd", "setting": "NTS1R [2]", "result": 1.2, "unit": "nM"},
      {"measurement": "Kd", "setting": "NTS1R [3]", "result": 1.9, "unit": "nM"},
      {"measurement": "koff [min^–1]", "setting": "NTS1R [4]; adherent CHO-hNTS1R cells, 23 °C, tested form: TFA", "result": "0.026 ± 0.007", "unit": "min^–1"},
      {"measurement": "kobs(slow) [min^–1]", "setting": "NTS1R [4]; adherent CHO-hNTS1R cells, biphasic exponential fit, tested form: TFA", "result": "0.013 ± 0.002 ^b min^–1"},
      {"measurement": "kon(fast) [min^–1 nM^–1]", "setting": "NTS1R [4]; adherent CHO-hNTS1R cells, calculated from koff, kobs(fast) and ligand concentration, tested form: TFA", "result": "0.10 ± 0.04 ^c min^–1 nM^–1"},
      {"measurement": "kobs(fast) [min^–1]", "setting": "NTS1R [4]; adherent CHO-hNTS1R cells, monophasic fit of initial association phase, 1.3 nM [^3H]13 or 1.1 nM [^3H]18, tested form: TFA", "result": "0.14 ± 0.03 ^a min^–1"},
      {"measurement": "Proportion of fast kinetic component (association)", "setting": "NTS1R [4]; [7]", "result": 16, "unit": "%"},
      {"measurement": "Proportion of slow kinetic component (association)", "setting": "NTS1R [4]; [7]", "result": 84, "unit": "%"},
      {"measurement": "Kd", "setting": "NTS1R [4]; read-out: Kd(kin), adherent CHO-hNTS1R cells, koff/kon(fast), tested form: TFA", "result": 0.26, "unit": "nM"},
      {"measurement": "Kd", "setting": "NTS1R [5]; read-out: Kd(kin), suspended CHO-hNTS1R cells, koff/kon(fast), tested form: TFA", "result": 0.31, "unit": "nM"},
      {"measurement": "koff [min^–1]", "setting": "NTS1R [5]; suspended CHO-hNTS1R cells (50 mL falcon tubes), 23 °C, tested form: TFA", "result": "0.030 ± 0.004", "unit": "min^–1"},
      {"measurement": "kobs(slow) [min^–1]", "setting": "NTS1R [5]; suspended CHO-hNTS1R cells, biphasic exponential fit, tested form: TFA", "result": "0.006 ± 0.002 ^b min^–1"},
      {"measurement": "kon(fast) [min^–1 nM^–1]", "setting": "NTS1R [5]; suspended CHO-hNTS1R cells, calculated from koff, kobs(fast) and ligand concentration, tested form: TFA", "result": "0.097 ± 0.13 ^c min^–1 nM^–1"},
      {"measurement": "kobs(fast) [min^–1]", "setting": "NTS1R [5]; suspended CHO-hNTS1R cells, monophasic fit of initial association phase, 1.8 nM [^3H]13 or 1.2 nM [^3H]18, tested form: TFA", "result": "0.15 ± 0.03 ^a min^–1"},
      {"measurement": "Proportion of fast kinetic component (association)", "setting": "NTS1R [5]; [8]", "result": 19, "unit": "%"},
      {"measurement": "Proportion of slow kinetic component (association)", "setting": "NTS1R [5]; [8]", "result": 81, "unit": "%"},
      {"measurement": "Radiochemical purity 11 months after synthesis", "setting": "[6]", "result": 80, "unit": "%"}
    ]}
  ]
}
